Like-named read-outs stand apart in the source and are kept apart here.
What was measured:
in vivo [1] = details: rat, acute toxicity, oral administration, rats, read-out: DL 50 A.O
in vivo [2] = details: rat, ip, acute toxicity, intraperitoneal administration, rats, read-out: DL50 A. IP

O=C(c1ccc(O)c(O)c1)c1cccc(O)c1O [2,3,3',4'-Tetrahydroxybenzophenone, 2,3,3',4'-tetrahydroxybenzophenone]
LD50 (in vivo [1]): 2000 mg/kg | LD50 (in vivo [2]): 1500 mg/kg

Source: patent US4015017A, “Certain biphenyl derivatives used to treat disorders caused by increased capillary permeability” (Laboratoires Pharmascience, priority 1974, dated 1977)
